The values that follow are results of earlier work, collected in PMC5820113 (Neuropharmacology, 2017).

This series addresses dopamine transporter (DAT). The note with it: read-out: Ki, DAT affinity; ref Cao et al, 2016; Zhang et al, 2017; cited from earlier work.

A word on the Ki: it is the dissociation constant of the complex between target and ligand, obtained from inhibition or displacement. As for `Fc1ccc(C(SCCNCCCc2ccccc2)c2ccc(F)cc2)cc1` [JJC8-016, N-[2-([bis(4-fluorophenyl)methyl]thio)ethyl]-3-phenylpropan-1-amine], the inhibitory constant (Ki) is 116 nM.
